## scFv variants of Ab-14 (light chain) against a SARS-CoV-2 spike peptide

From the AlphaSeq antibody data of Li et al. 2023 (doi:10.1038/s41467-023-39022-2), copy in the FLAb collection.

The target is the same throughout: PDVDLGDISGINAS, from the HR2 region of SARS-CoV-2 spike.

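Phage display of a naive human antibody library on the peptide gave the parent. The variants were designed computationally from a first round of random CDR variants and then made and measured. Several design methods are mixed in this list. AlphaSeq pools MATa yeast showing the antibodies with MATalpha yeast showing the peptide. Binding brings cells together so that they mate, and sequencing counts the barcode pairs among the diploids. Scores were corrected for input abundance and mapped to Kd with protein pairs of known affinity run in the same pool. There are six technical replicates.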

Parent: Ab-14, a human scFv built as VH, a 15-residue (Gly4Ser)3 linker, VL. Only the CDRs of the light chain vary.
VH: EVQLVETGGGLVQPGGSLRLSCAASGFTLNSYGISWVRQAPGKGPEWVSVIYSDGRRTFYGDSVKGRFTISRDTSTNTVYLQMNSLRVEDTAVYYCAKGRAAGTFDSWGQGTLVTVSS
VL: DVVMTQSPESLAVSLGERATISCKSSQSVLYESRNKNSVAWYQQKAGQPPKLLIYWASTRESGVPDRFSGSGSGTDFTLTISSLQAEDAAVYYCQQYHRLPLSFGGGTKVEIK

Positions count from residue 1 of the parent VL; S25L puts L in place of S.
Variants here have at most six changes.
Values are apparent Kd, the geometric mean of the replicates that gave a signal; lower means stronger binding.
A pair that was not seen in any replicate is written "no signal"; this usually means weak binding, but a binder can also be missed.
Where one sequence has several entries in the source, the replicates are pooled.

changes	Kd	seen in
S25L+L30E+W56H+E61L	3.8 nM	6 of 6
S25F+N35T+W56N+R99F+L100H+S103W	300 nM	2 of 6
S25V+S28Q+V29H+W56N	560 pM	6 of 6
S25L+S26V+Q27N+V29T+N35Q	500 nM	5 of 6
S25L+S26Q+V29E+W56H+T59Q	7.4 nM	6 of 6
S25C+S26L+W56E+S62D	710 pM	6 of 6
S25V+S26M+V29W+W56N+T59Q	1.5 nM	6 of 6
S25V+Q27M+L30N+E32L+S33Q+W56Q	53 nM	2 of 6
W56H+S58W+S62M	60 nM	5 of 6
K24D+Y31F+W56E+P101Y	37 nM	4 of 6
S25V+S26Y+V29W+W56N+T59Q	980 pM	6 of 6
S26L+K36F+W56H+T59Q+S62D	8.5 nM	6 of 6
S25F+N35Q+S38G+W56N	460 pM	6 of 6
S25F+V29D+W56N+T59Y	71 nM	6 of 6
S26R+W56D	1.3 nM	6 of 6
K36V+W56H	3.3 nM	6 of 6
S25L+V29W+W56N+E61M+Q96D	490 pM	6 of 6
Y31F+W56D	1.6 nM	12 of 12
Q27T+S62N	340 nM	4 of 6
S33D+N35H+W56G	5.3 nM	6 of 6
V29W+W56D	6.3 nM	6 of 6
S25D+W56D+S58N	1.5 nM	6 of 6
K24S+S26E	no signal	0 of 6
S25C+S26D+W56N	1.0 nM	6 of 6
S25L+V29F+S38A+W56G	6.8 nM	6 of 6
S26D+V29E+Y31E+S33Q+W56S+E61L	no signal	0 of 6
S25V+S26E+S28G+Y31D+K36D+S62G	29 nM	6 of 6
K24H+Q27P+L30A+W56G	1.3 nM	6 of 6
V29F+S33L+W56S+Q96S+P101I	no signal	0 of 6
V29T+H98I	no signal	0 of 6
S25F+E32C+N35T+W56N+L100I	5.9 nM	6 of 6
Q96W+R99V	no signal	0 of 6
S25V+V29Q+N35M+W56D+E61C+S103E	2.0 nM	6 of 6
S25V+W56D+H98Q	440 pM	6 of 6
S33D+T59I+S62E	7.6 nM	6 of 6
S25F+S26Y+V29Q+W56N	550 pM	6 of 6
Q96P	210 nM	1 of 6
Q27I+V29Y+R34G+K36H+W56E+S62Q	2.2 nM	6 of 6
Y31D+S33G	8.0 nM	6 of 6
S25V+Q27I+V29Y+Y31L+W56E+S62D	600 pM	6 of 6
S33P+R34N	22 nM	6 of 6
S26P+S28G+S38H+W56G	1.5 nM	6 of 6
W56S+S62D	2.0 nM	6 of 6
Q27I+V29Y+Y31S+W56E	710 pM	6 of 6
K36N+W56S	38 nM	6 of 6
S26P+S28G+W56G+T59V	680 pM	6 of 6
S25V+V29H+S38N+W56N	850 pM	6 of 6
Q27D+Y31G	23 nM	6 of 6
S25L+S26Q+V29E+W56N+E61M+S62E	640 pM	6 of 6
S25L+Q27S+W56N	400 pM	6 of 6
K36A+Q96S+H98Q	2.1 µM	1 of 6
Y31F+K36D+W56G+P101V	12 nM	5 of 6
S25L+S26W+V29Q+W56N+E61L	1.7 nM	6 of 6
S26Q+V29W+S38N+W56H+S62D	740 pM	6 of 6
S25L+L30C+S33Q+N35Q+W56N+E61M	9.7 nM	6 of 6
S25Q+Y31M+K36C+W56D+H98E	1.1 nM	6 of 6
S26D+R34G+W56M	10 nM	6 of 6
S25Q+Q27I+V29Y+Y31G+W56E	1.7 nM	6 of 6
S26L+Q27E+R34N+W56Q+S62D	11 nM	6 of 6
S25L+S26Q+V29E+L30P+W56E	2.4 nM	6 of 6
Q27N+W56G+R99Y	12 nM	6 of 6
S25L+L30Q+W56E	1.7 nM	6 of 6
S25F+V29D+W56N+A57G	550 pM	6 of 6
K24H+Q27P+L30Y+W56N+S62E+Q96D	570 pM	6 of 6
S25V+V29H+W56E+E61L	930 pM	6 of 6
V29T+Y31L+K36M+S103D	130 nM	2 of 6
S25L+N35Q+W56E	840 pM	6 of 6

The last 7 entries again:

changes	Kd	seen in
Q27N+W56G+R99Y	12 nM	6 of 6
S25L+L30Q+W56E	1.7 nM	6 of 6
S25F+V29D+W56N+A57G	550 pM	6 of 6
K24H+Q27P+L30Y+W56N+S62E+Q96D	570 pM	6 of 6
S25V+V29H+W56E+E61L	930 pM	6 of 6
V29T+Y31L+K36M+S103D	130 nM	2 of 6
S25L+N35Q+W56E	840 pM	6 of 6

A sequence measured in both rounds can read differently, since the two assays cover different ranges.
In the paper, a design with two or fewer of six values counts as a poor binder.
Empty control strains, which show no peptide, gave a signal in 4% of pairings with all light chain designs; the median was 430 nM and 95% of these signals were weaker than 38 nM. No background was subtracted.
Of ten entries with the parent sequence, four were seen in most replicates (averages 2.2 nM to 240 nM), three in one and three in none, so single entries are noisy.